Source: patent publication US9555013B2, “Modulation of fibroblast activity” (The University of Leicester, priority 2008, dated 2017)

System: human neutrophils
Experiment: Secretion of VEGF from neutrophils (ELISA)
Assay type: cell-based
Conditions: FIG. 15; after 48 hours; vs control
Method: Human dermal fibroblasts (FIGS. 9 and 15) or human neutrophils (VEGF only) (FIG. 15) were seeded into 6-well plates and grown to 60% confluence in FM. […] The supernatants were prepared and assayed using ELISA kits for TGF-β1, TGF-β2, 15 TGF-β3 and VEGF (R & D systems) following the Manufacturer's instructions.

## COc1ccc(CC(C)NCC(O)c2ccc(O)c(NC=O)c2)cc1 (stereo not shown) [formotorol]
  amount of VEGF secreted from human neutrophils: decrease
